Literature values, collected in article PMC5775816 (Journal of medicinal chemistry, 2016).

Biological target: T1, PAR1 (Homo sapiens, UniProt P25116)
T1 sequence (P25116 22-425): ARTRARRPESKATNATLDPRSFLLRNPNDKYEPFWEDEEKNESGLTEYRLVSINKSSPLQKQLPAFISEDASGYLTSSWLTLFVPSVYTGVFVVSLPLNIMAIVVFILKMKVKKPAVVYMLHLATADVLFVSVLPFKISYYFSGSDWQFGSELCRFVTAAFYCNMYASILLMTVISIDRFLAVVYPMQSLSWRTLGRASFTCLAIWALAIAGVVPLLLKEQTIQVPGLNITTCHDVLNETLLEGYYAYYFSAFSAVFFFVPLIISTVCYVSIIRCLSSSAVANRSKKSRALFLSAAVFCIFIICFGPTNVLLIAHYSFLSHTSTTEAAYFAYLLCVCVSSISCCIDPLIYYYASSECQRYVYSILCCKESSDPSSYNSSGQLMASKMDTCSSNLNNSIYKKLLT
Conditions: read-out: EC50 for PAR1; thrombin as agonist; background statement; cited from earlier work

Substance: Thrombin
- EC50: ~0.2 nM
